Target: His6-FANCI R1285Q (human, UniProt Q9NVI1, R1285Q, RED-tris-NTA dye (NanoTemper) on the His6 tag)

By UniProt entry, the sequences of proteins in these tests, tags left out. Where a name states a change or a piece, a line headed by the entry shows the natural chain unless it says otherwise.
UniProt Q9NVI1: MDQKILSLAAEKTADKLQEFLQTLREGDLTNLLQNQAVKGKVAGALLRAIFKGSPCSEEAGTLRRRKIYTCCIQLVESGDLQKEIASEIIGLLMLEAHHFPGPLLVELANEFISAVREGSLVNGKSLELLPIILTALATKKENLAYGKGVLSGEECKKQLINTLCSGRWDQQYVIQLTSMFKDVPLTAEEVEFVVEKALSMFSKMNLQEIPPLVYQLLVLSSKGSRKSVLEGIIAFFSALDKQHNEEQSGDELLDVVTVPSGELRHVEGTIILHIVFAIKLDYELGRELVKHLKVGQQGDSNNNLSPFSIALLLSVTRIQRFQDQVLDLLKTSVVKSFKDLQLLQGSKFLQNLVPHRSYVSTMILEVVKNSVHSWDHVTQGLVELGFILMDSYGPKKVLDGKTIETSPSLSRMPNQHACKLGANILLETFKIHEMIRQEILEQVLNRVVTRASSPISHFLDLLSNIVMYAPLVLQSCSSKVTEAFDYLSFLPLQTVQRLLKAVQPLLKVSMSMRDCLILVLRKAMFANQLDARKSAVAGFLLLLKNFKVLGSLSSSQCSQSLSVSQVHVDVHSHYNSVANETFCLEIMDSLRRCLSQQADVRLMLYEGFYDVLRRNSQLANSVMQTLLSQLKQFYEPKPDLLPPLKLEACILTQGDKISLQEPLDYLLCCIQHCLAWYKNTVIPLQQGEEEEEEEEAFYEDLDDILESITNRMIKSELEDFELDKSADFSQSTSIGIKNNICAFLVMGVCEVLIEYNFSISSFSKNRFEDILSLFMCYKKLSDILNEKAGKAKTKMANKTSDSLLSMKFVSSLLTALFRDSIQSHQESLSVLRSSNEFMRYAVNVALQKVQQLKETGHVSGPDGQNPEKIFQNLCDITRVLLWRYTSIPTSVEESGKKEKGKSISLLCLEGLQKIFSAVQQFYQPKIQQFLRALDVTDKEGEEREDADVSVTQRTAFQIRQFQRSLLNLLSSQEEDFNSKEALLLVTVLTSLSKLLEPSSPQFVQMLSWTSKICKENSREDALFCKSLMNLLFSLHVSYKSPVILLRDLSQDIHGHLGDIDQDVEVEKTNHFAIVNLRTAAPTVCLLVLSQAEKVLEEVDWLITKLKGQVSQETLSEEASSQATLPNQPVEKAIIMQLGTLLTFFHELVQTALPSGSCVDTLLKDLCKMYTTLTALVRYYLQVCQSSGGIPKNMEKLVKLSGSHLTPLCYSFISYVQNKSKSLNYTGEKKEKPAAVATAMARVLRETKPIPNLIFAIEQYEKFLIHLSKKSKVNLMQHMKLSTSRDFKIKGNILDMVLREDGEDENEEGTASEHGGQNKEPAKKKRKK

Kd: 3.43 nM
B1: FANCD2 (from His6-3C-FANCD2, His6-tag cleaved by 3C protease) (natural protein)
chain: MVSKRRLSKSEDKESLTEDASKTRKQPLSKKTKKSHIANEVEENDSIFVKLLKISGIILKTGESQNQLAVDQIAFQKKLFQTLRRHPSYPKIIEEFVSGLESYIEDEDSFRNCLLSCERLQDEEASMGASYSKSLIKLLLGIDILQPAIIKTLFEKLPEYFFENKNSDEINIPRLIVSQLKWLDRVVDGKDLTTKIMQLISIAPENLQHDIITSLPEILGDSQHADVGKELSDLLIENTSLTVPILDVLSSLRLDPNFLLKVRQLVMDKLSSIRLEDLPVIIKFILHSVTAMDTLEVISELREKLDLQHCVLPSRLQASQVKLKSKGRASSSGNQESSGQSCIILLFDVIKSAIRYEKTISEAWIKAIENTASVSEHKVFDLVMLFIIYSTNTQTKKYIDRVLRNKIRSGCIQEQLLQSTFSVHYLVLKDMCSSILSLAQSLLHSLDQSIISFGSLLYKYAFKFFDTYCQQEVVGALVTHICSGNEAEVDTALDVLLELVVLNPSAMMMNAVFVKGILDYLDNISPQQIRKLFYVLSTLAFSKQNEASSHIQDDMHLVIRKQLSSTVFKYKLIGIIGAVTMAGIMAADRSESPSLTQERANLSDEQCTQVTSLLQLVHSCSEQSPQASALYYDEFANLIQHEKLDPKALEWVGHTICNDFQDAFVVDSCVVPEGDFPFPVKALYGLEEYDTQDGIAINLLPLLFSQDFAKDGGPVTSQESGQKLVSPLCLAPYFRLLRLCVERQHNGNLEEIDGLLDCPIFLTDLEPGEKLESMSAKERSFMCSLIFLTLNWFREIVNAFCQETSPEMKGKVLTRLKHIVELQIILEKYLAVTPDYVPPLGNFDVETLDITPHTVTAISAKIRKKGKIERKQKTDGSKTSSSDTLSEEKNSECDPTPSHRGQLNKEFTGKEEKTSLLLHNSHAFFRELDIEVFSILHCGLVTKFILDTEMHTEATEVVQLGPPELLFLLEDLSQKLESMLTPPIARRVPFLKNKGSRNIGFSHLQQRSAQEIVHCVFQLLTPMCNHLENIHNYFQCLAAENHGVVDGPGVKVQEYHIMSSCYQRLLQIFHGLFAWSGFSQPENQNLLYSALHVLSSRLKQGEHSQPLEELLSQSVHYLQNFHQSIPSFQCALYLIRLLMVILEKSTASAQNKEKIASLARQFLCRVWPSGDKEKSNISNDQLHALLCIYLEHTESILKAIEEIAGVGVPELINSPKDASSSTFPTLTRHTFVVFFRVMMAELEKTVKKIEPGTAADSQQIHEEKLLYWNMAVRDFSILINLIKVFDSHPVLHVCLKYGRLFVEAFLKQCMPLLDFSFRKHREDVLSLLETFQLDTRLLHHLCGHSKIHQDTRLTQHVPLLKKTLELLVCRVKAMLTLNNCREAFWLGNLKNRDLQGEEIKSQNSQESTADESEDDMSSQASKSKATEDGEEDEVSAGEKEQDSDESYDDSD
